According to patent US20250264459A1, “IN VITRO ASSAY TO PREDICT CARDIOTOXICITY” (Stemina Biomarker Discovery, Inc., priority 2018, published 2025):

Key:
[1] = therapeutic total Cmax; cited from earlier work
[2] = system: human iPSC-CM (iCell Cardiomyocytes2); test: Spent-media metabolomics (LC-MS) cardiotoxicity prediction models, blinded test set; details: cardiotoxic vs non-cardiotoxic, at the Exposure (μM) listed per compound in Table 3, model from confirmed metabolites and viability

## CN(CCOc1ccc(CC2SC(=O)NC2=O)cc1)c1ccccn1 (centres unmarked) [Rosiglitazone]
[1]
  Cmax Total: 1700 nM
[2]
  Global Tox Model Prediction: −
